Source: patent publication US20230332145A1, “BIFUNCTIONAL MOLECULES AND METHODS OF USING THEREOF” (Flagship Pioneering, Inc., priority 2020, published 2023)

Chains of the proteins cited; added tags and fusions are not shown. Lines headed by an entry give the natural chain unless they say otherwise; changes in a name come on top.
UniProt Q06187: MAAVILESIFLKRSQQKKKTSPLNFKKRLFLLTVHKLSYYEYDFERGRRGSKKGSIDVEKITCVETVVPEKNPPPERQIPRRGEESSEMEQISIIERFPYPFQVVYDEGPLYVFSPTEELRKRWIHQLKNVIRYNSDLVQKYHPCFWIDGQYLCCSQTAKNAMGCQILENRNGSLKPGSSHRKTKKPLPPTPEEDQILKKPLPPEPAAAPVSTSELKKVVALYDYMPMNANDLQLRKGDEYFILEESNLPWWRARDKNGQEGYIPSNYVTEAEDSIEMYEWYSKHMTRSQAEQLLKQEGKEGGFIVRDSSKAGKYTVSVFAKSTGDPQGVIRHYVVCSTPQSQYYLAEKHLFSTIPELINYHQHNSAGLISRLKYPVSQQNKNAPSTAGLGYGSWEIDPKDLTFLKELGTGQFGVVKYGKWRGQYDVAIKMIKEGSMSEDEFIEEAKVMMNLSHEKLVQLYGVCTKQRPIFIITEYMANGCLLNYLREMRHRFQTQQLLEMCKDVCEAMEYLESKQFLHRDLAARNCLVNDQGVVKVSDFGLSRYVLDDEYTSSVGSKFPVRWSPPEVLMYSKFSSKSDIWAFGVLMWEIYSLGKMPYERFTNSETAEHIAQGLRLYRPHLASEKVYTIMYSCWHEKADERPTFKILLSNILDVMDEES

Biological target: T1, BTK protein and Cy5-labeled IVT RNA (Homo sapiens, UniProt Q06187)
T1 construct: purchased Active Motif 81083
Experiment: In vitro ternary complex formation assay (PAGE gel shift)
Type: binding
Conditions: 90 minutes room temperature; for ternary complex formation: supershift of BTK protein band in the presence of Cy5-IVT RNA: BTK protein + ASOi + Cy5-IVT RNA
Method: In one reaction (#5), 5 pmol antisense RNA oligo of the sequence 5′CGUUAACUAGGCUUUA3′ (hereafter called N33-ASOi) conjugated at the 5′ end with Ibrutinib was mixed in PBS with 1 pmol purified BTK protein (Active Motif #81083), 200 pmol yeast rRNA (as non-specific blocker) and 10 pmol Cy5-labeled IVT RNA of the sequence 5′[…] […] […] AAGGCGAA3′ (SEQ ID NO: 51).
All reactions were incubated at room temperature for 90 minutes protected from light, then mixed with a loading buffer containing final 0.5% SDS and 10% glycerol, and complexes separated by PAGE on a Bis-Tris 4-12% gel including an IRDye700 pre-stained protein molecular weight marker (LiCor). Immediately following electrophoresis, the gel was imaged using a LiCor Odyssey system with the 700 nm channel to identify the position of Cy5-IVT-RNA bands and MW marker. Subsequently, proteins in the gel were stained using InstantBlue colloidal coomassie stain (Expedeon) and re-imaged using transmitted light. The two images were lined up using size markers and lane positions to identify the relative positions of BTK protein bands and Cy5-IVT target RNA. (FIG. 1)
This complex was further confirmed by Cy5-IVT-RNA fluorescence signal overlapping the super-shifted BTK protein band.

| Substance | ternary complex formation: supershift of BTK protein band in the presence of Cy5-IVT RNA | binary complex formation: shift of BTK protein band (purified BTK protein reacted with ASOi) |
| --- | --- | --- |
| SCR-ASOi: non-complementary RNA oligo 5′AGAGGUGGCGUGGUAG3′ conjugated at the 5′ end with Ibrutinib (5' Ibrutinib conjugate) [reference compound] | complex stayed at arrow B level | – |
| N33-ASOi: antisense RNA oligo 5′CGUUAACUAGGCUUUA3′ conjugated at the 5′ end with Ibrutinib (5' Ibrutinib conjugate) | further supershift | increase in MW of the BTK protein band |
